Measured values reported in ChEMBL document CHEMBL3414471 (J Med Chem, 2015).

The chains behind the UniProt entries cited, without tags or fusion partners. Where a name states a change or a piece, a line headed by the entry shows the natural chain unless it says otherwise.
UniProt P28335: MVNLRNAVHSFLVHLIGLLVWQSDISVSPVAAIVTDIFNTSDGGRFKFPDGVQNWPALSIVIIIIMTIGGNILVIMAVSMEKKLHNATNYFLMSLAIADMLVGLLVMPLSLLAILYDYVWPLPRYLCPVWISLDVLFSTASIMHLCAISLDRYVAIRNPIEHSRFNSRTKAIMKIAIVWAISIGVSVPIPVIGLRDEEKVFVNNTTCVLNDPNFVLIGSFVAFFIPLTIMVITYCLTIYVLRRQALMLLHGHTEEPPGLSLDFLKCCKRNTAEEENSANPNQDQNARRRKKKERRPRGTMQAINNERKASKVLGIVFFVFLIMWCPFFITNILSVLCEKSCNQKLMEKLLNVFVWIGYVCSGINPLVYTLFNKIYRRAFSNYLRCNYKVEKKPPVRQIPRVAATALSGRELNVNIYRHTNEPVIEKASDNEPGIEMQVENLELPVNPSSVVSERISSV
UniProt P41595, whole entry: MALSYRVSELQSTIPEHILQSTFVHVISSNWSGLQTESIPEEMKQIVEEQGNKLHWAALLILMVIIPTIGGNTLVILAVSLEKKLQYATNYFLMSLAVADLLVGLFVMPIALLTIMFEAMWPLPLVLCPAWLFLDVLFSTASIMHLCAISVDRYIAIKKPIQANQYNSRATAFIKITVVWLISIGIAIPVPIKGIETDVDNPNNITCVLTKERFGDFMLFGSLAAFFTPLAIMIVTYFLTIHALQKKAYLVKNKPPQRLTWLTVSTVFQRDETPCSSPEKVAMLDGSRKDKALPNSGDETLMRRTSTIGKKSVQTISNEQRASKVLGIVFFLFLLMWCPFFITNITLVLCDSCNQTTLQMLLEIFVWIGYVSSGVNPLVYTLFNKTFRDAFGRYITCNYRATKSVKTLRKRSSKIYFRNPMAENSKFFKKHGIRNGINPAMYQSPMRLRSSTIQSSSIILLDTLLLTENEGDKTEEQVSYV
UniProt P28223, whole entry: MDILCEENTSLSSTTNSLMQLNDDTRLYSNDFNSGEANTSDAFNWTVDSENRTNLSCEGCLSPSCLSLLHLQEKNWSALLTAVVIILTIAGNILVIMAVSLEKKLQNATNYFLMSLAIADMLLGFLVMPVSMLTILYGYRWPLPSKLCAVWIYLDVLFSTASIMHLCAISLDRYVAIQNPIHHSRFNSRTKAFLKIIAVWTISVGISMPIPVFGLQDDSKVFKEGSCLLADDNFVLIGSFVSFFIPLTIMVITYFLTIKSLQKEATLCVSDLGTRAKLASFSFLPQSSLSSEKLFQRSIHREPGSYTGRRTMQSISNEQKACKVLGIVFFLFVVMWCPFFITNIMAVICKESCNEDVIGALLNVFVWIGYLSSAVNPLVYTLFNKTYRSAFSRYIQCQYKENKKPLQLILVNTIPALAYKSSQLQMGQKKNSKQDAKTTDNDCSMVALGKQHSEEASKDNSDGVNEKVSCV

How the values were obtained:
[1] = molecular target: T1, 5-hydroxytryptamine receptor 2C (Homo sapiens, UniProt P28335); test: Agonist activity at human 5-HT2C receptor expressed in HEK293 cells assessed as calcium flux by FLIPR assay relative to 5-HT; type: functional, cell-based
[2] = molecular target: 5-hydroxytryptamine receptor 2B (Homo sapiens, UniProt P41595); test: Agonist activity at human 5-HT2B receptor expressed in HEK293 cells assessed as calcium flux by FLIPR assay relative to 5-HT; type: functional, cell-based
[3] = molecular target: T2, 5-hydroxytryptamine receptor 2A (Homo sapiens, UniProt P28223); test: Agonist activity at human 5-HT2A receptor expressed in HEK293 cells assessed as calcium flux by FLIPR assay relative to 5-HT; type: functional, cell-based
Homo sapiens = species: Homo sapiens; test: Selectivity ratio of EC50 for human 5-HT2B receptor to EC50 for human 5HT2C receptor
[4] = molecular target: T2, 5-hydroxytryptamine receptor 2A; test: Agonist activity at human 5-HT2A receptor expressed in HEK293 cells assessed as calcium flux at 10 uM by FLIPR assay; type: functional, cell-based
[5] = molecular target: T1, 5-hydroxytryptamine receptor 2C; test: Agonist activity at 5HT2C receptor (unknown origin) relative to control

Which results are given for `CC(C)Oc1ccc(Cl)cc1[C@H]1C[C@@H]1CN`?
Emax [1]: 86%; Emax [2]: 37%; Emax [3]: 19%; Ratio EC50 (Homo sapiens): 11

What does the source list for `CC(C)Oc1ccc(Cl)cc1[C@@H]1C[C@H]1CN`?
Emax [1]: 37%; Emax [2]: 19%; Activity [4]: inactive

How did the Activity [4] turn out when `CCCCOc1ccc(Cl)cc1[C@@H]1C[C@H]1CN` was run?
Its Activity is “inactive”.

For `CCCCOc1ccc(Cl)cc1[C@H]1C[C@@H]1CN`, which Activity [4] is on record?
The Activity was “inactive”.

How did the Emax [5] turn out when `c1cc2c3c(c1)[C@H]1CCC[C@H]1CN3CCNC2` was run?
The Emax was 100%.

Calls of active or inactive are those of the source. The rule behind the calls is not given here.
